# Results: patent publication US11578069B2, “Compounds for inhibition of α4 β7 integrin” (Gilead Sciences, Inc., priority 2019, dated 2023)
# Amino acid sequences for entries named in this document (tags omitted). Residues count along the entry.
# UniProt P05556, 21-798 limits assumed: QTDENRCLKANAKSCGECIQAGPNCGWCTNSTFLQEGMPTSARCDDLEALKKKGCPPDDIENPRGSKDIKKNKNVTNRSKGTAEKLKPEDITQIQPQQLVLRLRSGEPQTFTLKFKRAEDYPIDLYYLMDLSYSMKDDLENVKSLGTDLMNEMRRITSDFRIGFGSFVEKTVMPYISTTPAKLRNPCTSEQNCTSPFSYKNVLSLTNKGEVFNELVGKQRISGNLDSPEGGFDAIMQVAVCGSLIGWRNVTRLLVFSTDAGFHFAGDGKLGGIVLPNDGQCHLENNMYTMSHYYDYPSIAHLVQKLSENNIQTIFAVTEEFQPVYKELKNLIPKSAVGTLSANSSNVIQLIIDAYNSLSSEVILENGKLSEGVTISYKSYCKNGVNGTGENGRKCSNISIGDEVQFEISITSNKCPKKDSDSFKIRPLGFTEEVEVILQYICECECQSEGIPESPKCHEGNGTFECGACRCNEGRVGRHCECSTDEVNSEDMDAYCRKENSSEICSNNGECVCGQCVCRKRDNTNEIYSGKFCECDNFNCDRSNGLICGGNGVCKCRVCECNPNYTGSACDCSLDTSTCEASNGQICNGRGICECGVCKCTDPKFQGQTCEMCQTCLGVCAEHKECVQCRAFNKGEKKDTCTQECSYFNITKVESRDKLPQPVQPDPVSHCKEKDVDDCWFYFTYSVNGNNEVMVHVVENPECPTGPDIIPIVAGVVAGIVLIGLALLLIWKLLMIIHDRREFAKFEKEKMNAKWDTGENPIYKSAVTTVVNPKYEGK
# UniProt P13612, 34-1032 limits assumed: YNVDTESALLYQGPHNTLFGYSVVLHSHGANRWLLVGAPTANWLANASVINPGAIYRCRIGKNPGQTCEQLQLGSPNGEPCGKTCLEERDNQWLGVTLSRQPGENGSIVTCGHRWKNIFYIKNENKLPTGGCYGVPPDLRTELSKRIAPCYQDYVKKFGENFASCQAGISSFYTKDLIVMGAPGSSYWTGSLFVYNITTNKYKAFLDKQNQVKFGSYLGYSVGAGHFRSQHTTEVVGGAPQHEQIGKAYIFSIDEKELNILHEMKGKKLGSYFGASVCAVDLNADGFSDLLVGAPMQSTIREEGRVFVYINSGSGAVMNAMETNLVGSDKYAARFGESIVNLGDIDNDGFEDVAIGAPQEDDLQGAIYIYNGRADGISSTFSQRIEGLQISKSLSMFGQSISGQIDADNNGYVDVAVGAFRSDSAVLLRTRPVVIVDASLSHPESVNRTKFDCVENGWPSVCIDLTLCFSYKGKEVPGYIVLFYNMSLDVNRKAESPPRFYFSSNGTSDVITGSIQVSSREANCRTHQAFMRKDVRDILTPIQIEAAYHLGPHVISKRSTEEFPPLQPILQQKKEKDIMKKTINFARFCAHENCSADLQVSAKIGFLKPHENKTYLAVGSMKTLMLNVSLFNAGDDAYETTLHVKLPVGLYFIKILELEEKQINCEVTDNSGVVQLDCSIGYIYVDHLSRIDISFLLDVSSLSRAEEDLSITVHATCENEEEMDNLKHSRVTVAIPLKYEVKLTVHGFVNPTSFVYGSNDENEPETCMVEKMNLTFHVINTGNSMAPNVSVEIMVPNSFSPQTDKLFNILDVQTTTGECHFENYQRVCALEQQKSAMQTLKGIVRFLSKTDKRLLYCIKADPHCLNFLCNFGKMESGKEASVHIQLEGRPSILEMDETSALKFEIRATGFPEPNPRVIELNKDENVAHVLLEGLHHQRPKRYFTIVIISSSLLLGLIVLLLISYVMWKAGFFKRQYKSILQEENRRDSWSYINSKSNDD
# UniProt P26010, 20-798 limits assumed: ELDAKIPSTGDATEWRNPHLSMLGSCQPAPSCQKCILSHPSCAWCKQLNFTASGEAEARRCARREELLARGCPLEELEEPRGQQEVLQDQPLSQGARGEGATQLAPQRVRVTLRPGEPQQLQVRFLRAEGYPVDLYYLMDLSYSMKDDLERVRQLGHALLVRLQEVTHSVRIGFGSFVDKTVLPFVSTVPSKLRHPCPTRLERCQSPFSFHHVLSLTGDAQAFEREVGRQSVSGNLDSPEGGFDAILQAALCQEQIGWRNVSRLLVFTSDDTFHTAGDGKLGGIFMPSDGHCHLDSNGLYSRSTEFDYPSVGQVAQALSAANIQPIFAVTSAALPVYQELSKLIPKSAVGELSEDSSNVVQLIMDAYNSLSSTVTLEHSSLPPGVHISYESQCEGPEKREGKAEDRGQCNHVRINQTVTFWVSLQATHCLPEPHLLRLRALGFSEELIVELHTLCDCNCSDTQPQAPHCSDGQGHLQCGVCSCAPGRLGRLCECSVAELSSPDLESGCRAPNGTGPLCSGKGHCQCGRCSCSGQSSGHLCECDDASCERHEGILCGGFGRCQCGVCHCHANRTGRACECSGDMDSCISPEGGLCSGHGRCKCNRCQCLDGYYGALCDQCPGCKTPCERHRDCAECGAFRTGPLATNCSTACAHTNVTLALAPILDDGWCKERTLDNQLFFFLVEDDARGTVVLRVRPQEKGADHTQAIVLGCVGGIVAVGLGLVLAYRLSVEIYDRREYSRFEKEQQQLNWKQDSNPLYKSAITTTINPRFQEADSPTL
# What was measured:
# α4β1 integrin = α4β1 integrin (Homo sapiens, UniProt P05556+P13612); assay: α4β1 Cell Capture Assay; conditions: read-out: α4β1 EC50; capture of α4β1 expressing Jurkat cells on VCAM-1 extracellular domain-coated plate; Table 2
# Method: The potency of inhibitors in preventing α4β1 integrin interaction with VCAM-1 was measured by monitoring the capture of α4β1 expressing cells to a recombinant VCAM-1 extracellular domain-coated plate.
# 384-well plates (Corning 3702) were coated with VCAM-1 extracellular domain by dispensing 20 μL of VCAM-1 at 0.5 μg/ml per well and incubating overnight at 4° C. The plates were then washed with PBS and blocked with 3% BSA for 2 hours before being washed again.
# (§1) Jurkat cells were spun down and re-suspended in assay medium (DMEM+0.5% FBS+0.5 mM MnCl2) at a density of 0.5×10^6 cells/ml. The cells were then dispensed (60 μL/well) to a 384-well plate (Greiner 781280) that was previously spotted with 60 nL of test compound per well. The plates were incubated at 37° C. for 1 hour. 50 μL of cells were transferred to the blocked, VCAM-1-coated plates and incubated for 30 minutes at 37° C. 10 μl of 12% glutaraldehyde containing Hoechst 33342 (0.06 mg/mL) was added to the cells (2% glutaraldehyde and 0.01 mg/ml Hoechst 33342 final concentrations). The plates were incubated for 90 minutes at room temperature. The plates were then washed 3 times with 70 μL of PBS per well and imaged on a Cellomics ArrayScan instrument. The cells that were bound to the plate were counted and plotted against the compound concentration to determine the EC50 of the test compounds.
# α4β7 integrin = α4β7 integrin (Homo sapiens, UniProt P13612+P26010); assay: α4β7 Integrin Cell Capture Assay; conditions: read-out: α4β7 EC50; capture of α4β7 integrin expressing RPM18866 cells on MadCAM-1 extracellular domain-coated plate; Table 2
# Method: The potency of inhibitors in preventing α4β7 integrin interaction with MadCAM-1 was measured by monitoring the capture of α4β7 integrin expressing cells on a recombinant MadCAM-1 extracellular domain-coated plate.
# 384-well plates (Corning 3702) were coated with MadCAM-1 extracellular domain by dispensing 20 μL of MAdCAM-1 at 1.0 μg/mL per well and incubating overnight at 4° C. The plates were then washed with PBS and blocked with 3% BSA for 2 hours before being washed again.
# as §1, with “RPM18866” for “Jurkat”, “cells/mL.” for “cells/ml.”, “MadCAM-1-coated” for “VCAM-1-coated”, “μL” for “μl”, “mg/mL” for “mg/ml Hoechst 33342”
compound,measurement,setting,value
COc1cc(C)n(C)c(=O)c1-c1ccc(C[C@H](NC(=O)c2c(C)cc(N3CCOC[C@@H]3C(F)(F)F)cc2F)C(=O)O)cc1C,EC50,α4β1 integrin,8.3 nM
same,EC50,α4β7 integrin,0.3 nM
